In this assay the target is T1, recombinant HIV-1 protease (Human immunodeficiency virus type 1 group M subtype B, UniProt P04585).
T1 construct: Enzyme: recombinant HIV-1 protease expressed in E.Coli; purchased Bachem California, Inc. H-9040; host or cells: E. coli
The experiment in a line: biochemical.

Each structure is given as a SMILES string. Read-outs that look alike come from different tables or passages of the source.

Results on 60 compounds are retold here after US20040121316A1 (priority 2002, published 2004).

The term Ki denotes a measure of affinity in units of concentration, obtained from inhibition or displacement. In general, IC50 refers to the concentration needed to halve the response being measured.

As to `CCOP(=O)(COC1CCN(CC(NC(=O)OC2COC3OCCC23)C(O)CN(CC(C)C)S(=O)(=O)c2ccc(OC)cc2)CC1)OCC` (centres unmarked), the Ki (Ki) is more than 1000 pM.

As for `COc1ccc(S(=O)(=O)N(CC(C)C)CC(O)C(CC2=CCN(CP(=O)(O)O)CC2)NC(=O)OC2COC3OCCC23)cc1` (centres unmarked), the Ki (Ki) is more than 1000 pM.

For `CCOP(=O)(CN1CC=C(CC(NC(=O)OC2COC3OCCC23)C(O)CN(CC(C)C)S(=O)(=O)c2ccc(OC)cc2)CC1)OCC` (centres unmarked), the inhibition constant (Ki) entry was “+ +”. Take `COc1ccc(S(=O)(=O)N(CC(C)C)CC(O)C(CC2=CCN(CCP(=O)(OC)OC)CC2)NC(=O)OC2COC3OCCC23)cc1` (centres unmarked): under “Ki”, the inhibition constant (Ki) lay within 100 to 1000 pM. Take `COc1ccc(S(=O)(=O)N(CC(C)C)CC(O)C(CC2=CCN(CCP(=O)(O)O)CC2)NC(=O)OC2COC3OCCC23)cc1` (centres unmarked): the inhibition constant (Ki) (Ki) is more than 1000 pM. On to `CCOP(=O)(CCC1=CCN(CC(NC(=O)OC2COC3OCCC23)C(O)CN(CC(C)C)S(=O)(=O)c2ccc(OC)cc2)CC1)OCC` (centres unmarked), for which, for the setting “Ki”, the inhibition constant (Ki) lay in the range of 100 to 1000 pM. Take `COc1ccc(S(=O)(=O)N(CC(C)C)CC(O)C(CNc2ccc(CP(=O)(O)O)cc2)NC(=O)OC2COC3OCCC23)cc1` (centres unmarked): the Ki (Ki) lay in the range of 100 to 1000 pM. For the compound `CCOP(=O)(Cc1ccc(NCC(NC(=O)OC2COC3OCCC23)C(O)CN(CC(C)C)S(=O)(=O)c2ccc(OC)cc2)cc1)OCC` (centres unmarked), the inhibitory constant (Ki) result was “+ +”.

Turning to `COc1ccc(S(=O)(=O)N(CC(C)C)CC(O)C(CNc2ccc(CP(=O)(OCc3ccccc3)OCc3ccccc3)cc2)NC(=O)OC2COC3OCCC23)cc1` (centres unmarked), the inhibition constant Ki entry was “+ +”. Consider `CCOC(=O)C(C)NP(=O)(Cc1ccc(NCC(NC(=O)OC2COC3OCCC23)C(O)CN(CC(C)C)S(=O)(=O)c2ccc(OC)cc2)cc1)NC(C)C(=O)OCC` (centres unmarked), for which the Ki result is “+ +”. For the compound `CCOP(=O)(Cc1ccc(N(C)CC(NC(=O)OC2COC3OCCC23)C(O)CN(CC(C)C)S(=O)(=O)c2ccc(OC)cc2)cc1)OCC` (centres unmarked), the Ki result is reported as “+ +”. Turning to `CCOP(=O)(Cc1ccc(CNCC(NC(=O)OC2COC3OCCC23)C(O)CN(CC(C)C)S(=O)(=O)c2ccc(OC)cc2)cc1)OCC` (centres unmarked), the inhibition constant (Ki) (Ki) is more than 1000 pM.

Take `COc1ccc(S(=O)(=O)N(CC(C)C)CC(O)C(CNCc2ccc(CP(=O)(O)O)cc2)NC(=O)OC2COC3OCCC23)cc1` (centres unmarked): the Ki (Ki) was more than 1000 pM. With `CCOP(=O)(Cc1ccc(CN(C)CC(NC(=O)OC2COC3OCCC23)C(O)CN(CC(C)C)S(=O)(=O)c2ccc(OC)cc2)cc1)OCC` (centres unmarked), under “Ki”, the inhibition constant Ki is 100 to 1000 pM. For `COc1ccc(S(=O)(=O)N(CC(C)C)CC(O)C(CN(C)Cc2ccc(CP(=O)(O)O)cc2)NC(=O)OC2COC3OCCC23)cc1` (centres unmarked), under “Ki”, the inhibition constant Ki was more than 1000 pM.

As to `CCOP(=O)(Cc1ccc2c(c1)CCN(CC(NC(=O)OC1COC3OCCC13)C(O)CN(CC(C)C)S(=O)(=O)c1ccc(OC)cc1)C2)OCC` (centres unmarked), the inhibition constant (Ki) entry was “+ +”. For `CCOP(=O)(COc1ccc2c(c1)CN(CC(NC(=O)OC1COC3OCCC13)C(O)CN(CC(C)C)S(=O)(=O)c1ccc(OC)cc1)C2)OCC` (centres unmarked), under “Ki”, the inhibitory constant (Ki) is more than 1000 pM.

In the case of `CCOP(=O)(CNc1ccc(CC(NC(=O)OC2COC3OCCC23)C(O)CN(CC(C)C)S(=O)(=O)c2ccc(OC)cc2)cc1)OCC` (centres unmarked), the Ki entry is recorded as “+ + +”. Same read-out and setting: the value for `COc1ccc(S(=O)(=O)N(CC(C)C)CC(O)C(Cc2ccc(NCP(=O)(OCc3ccccc3)OCc3ccccc3)cc2)NC(=O)OC2COC3OCCC23)cc1` (centres unmarked) was “+ + +”; that for `COc1ccc(S(=O)(=O)N(CC(C)C)CC(O)C(Cc2ccc(NCCP(=O)(O)O)cc2)NC(=O)OC2COC3OCCC23)cc1` (centres unmarked) was “+ +”.

Turning to `COc1ccc(S(=O)(=O)N(CC(C)C)CC(O)C(Cc2ccc(C)cc2)NC(=O)OC2COC3OCCC23)cc1` (centres unmarked), the “Ki (pM)” value is recorded as “+ +”. For the compound `COc1ccc(S(=O)(=O)N(CC(C)C)CC(O)C(Cc2ccc(OCc3ccccc3)cc2)NC(=O)OC2COC3OCCC23)cc1` (centres unmarked), the “Ki (pM)” value is “+ + +”. On to `COc1ccc(S(=O)(=O)N(CCN2CCOCC2)CC(O)C(Cc2ccc(OCP(=O)(O)O)cc2)NC(=O)OC2COC3OCCC23)cc1` (centres unmarked), for which the Ki (Ki (pM)) is more than 1000 pM. Consider `COc1ccc(S(=O)(=O)N(CCN2CCOCC2)CC(O)C(Cc2ccc(OCP(=O)(OCc3ccccc3)OCc3ccccc3)cc2)NC(=O)OC2COC3OCCC23)cc1` (centres unmarked), for which the Ki (Ki (pM)) was 100 to 1000 pM. For the compound `COc1ccc(S(=O)(=O)N(CC2CCNCC2)CC(O)C(Cc2ccc(O)cc2)NC(=O)OC2COC3OCCC23)cc1` (centres unmarked), the inhibition constant Ki (Ki (pM)) is more than 1000 pM. Regarding `COc1ccc(S(=O)(=O)N(CC2CCN(C=O)CC2)CC(O)C(Cc2ccc(OCP(=O)(O)O)cc2)NC(=O)OC2COC3OCCC23)cc1` (centres unmarked), the “Ki (pM)” value is recorded as “+ +”. Regarding `CCOP(=O)(COc1ccc(CC(NC(=O)OC2COC3OCCC23)C(O)CN(CC2CCN(C=O)CC2)S(=O)(=O)c2ccc(OC)cc2)cc1)OCC` (centres unmarked), the “Ki (pM)” value is listed as “+ +”. For the compound `CCOP(=O)(COc1ccc(CC(NC(=O)OC2COC3OCCC23)C(O)CN(CC2CCN(C)CC2)S(=O)(=O)c2ccc(OC)cc2)cc1)OCC` (centres unmarked), the Ki (Ki (pM)) is 100 to 1000 pM. As for `COc1ccc(S(=O)(=O)N(Cc2ccccc2)CC(O)C(Cc2ccccc2)NC(=O)OC2COC3OCCC23)cc1` (centres unmarked), the “Ki (pM)” value was “+ +”. For `COc1ccc(S(=O)(=O)N(CC(O)C(Cc2ccccc2)NC(=O)OC2COC3OCCC23)CC(C)(C)CO)cc1` (centres unmarked), the “Ki (pM)” value is reported as “+ + +”.

On to `Cc1cccc(C)c1OCC(=O)NC(Cc1ccc(OCP(=O)(O)O)cc1)C(O)CN(CC(C)C)S(=O)(=O)c1ccc(N)cc1` (centres unmarked), for which the Ki (Ki (pM)) was more than 1000 pM. As to `CC(C)CN(CC(O)C(Cc1ccc(OCP(=O)(O)O)cc1)NC(=O)OC1COC2OCCC12)S(=O)(=O)c1ccc(N)cc1` (centres unmarked), the “Ki (pM)” value is “+ +”. As for `CCOP(=O)(COc1ccc(CC(NC(=O)OC2COC3OCCC23)C(O)CN(CC(C)C)S(=O)(=O)c2ccc(N)cc2)cc1)OCC` (centres unmarked), the “Ki (pM)” value was “+ +”. Regarding `CCNc1ccc(S(=O)(=O)N(CC(C)C)CC(O)C(Cc2ccc(OCP(=O)(OCC)OCC)cc2)NC(=O)OC2COC3OCCC23)cc1` (centres unmarked), the “Ki (pM)” value is listed as “+ +”. Turning to `CC(C)CN(CC(O)C(Cc1ccc(OCP(=O)(OCc2ccccc2)OCc2ccccc2)cc1)NC(=O)OC1COC2OCCC12)S(=O)(=O)c1ccc(N)cc1` (centres unmarked), the “Ki (pM)” value is recorded as “+ +”. Consider `CC(C)CN(CC(O)C(Cc1ccc(OCP(=O)(O)O)cc1)NC(=O)OC1COC2OCCC12)S(=O)(=O)c1cccc(N)c1` (centres unmarked), for which the “Ki (pM)” value is “+ +”.

As for `CCOP(=O)(COc1ccc(CC(NC(=O)OC2COC3OCCC23)C(O)CN(CC(C)C)S(=O)(=O)c2cccc(N)c2)cc1)OCC` (centres unmarked), the “Ki (pM)” value was “+ +”. As to `CC(C)CN(CC(O)C(Cc1ccc(OCP(=O)(OCc2ccccc2)OCc2ccccc2)cc1)NC(=O)OC1COC2OCCC12)S(=O)(=O)c1cccc(N)c1` (centres unmarked), the “Ki (pM)” value was “+ +”. As to `CC(C)CN(CC(O)C(Cc1ccc(OCP(=O)(O)O)cc1)NC(=O)OC1COC2OCCC12)S(=O)(=O)c1ccccc1` (centres unmarked), the “Ki (pM)” value is recorded as “+ +”. As to `CC(C)CN(CC(O)C(Cc1ccc(OCP(=O)(OCc2ccccc2)OCc2ccccc2)cc1)NC(=O)OC1COC2OCCC12)S(=O)(=O)c1ccccc1` (centres unmarked), the “Ki (pM)” value was “+ +”. Same read-out and setting: the value for `CC(C)CN(CC(O)C(Cc1ccc(OCP(=O)(O)O)cc1)NC(=O)OC1COC2OCCC12)S(=O)(=O)c1ccc(F)cc1` (centres unmarked) was “+ +”; that for `CC(C)CN(CC(O)C(Cc1ccc(OCP(=O)(OCc2ccccc2)OCc2ccccc2)cc1)NC(=O)OC1COC2OCCC12)S(=O)(=O)c1ccc(F)cc1` (centres unmarked) was “+ +”; that for `CC(C)CN(CC(O)C(Cc1ccc(OCP(=O)(O)O)cc1)NC(=O)OC1COC2OCCC12)S(=O)(=O)c1ccc(C(F)(F)F)cc1` (centres unmarked) was “+ + +”. For `CC(C)CN(CC(O)C(Cc1ccc(OCP(=O)(OCc2ccccc2)OCc2ccccc2)cc1)NC(=O)OC1COC2OCCC12)S(=O)(=O)c1ccc(C(F)(F)F)cc1` (centres unmarked), the “Ki (pM)” value was “+ +”. The same measure, in the same setting: the value for `CC(C)CN(CC(O)C(Cc1ccc(OCP(=O)(O)O)cc1)NC(=O)OC1COC2OCCC12)S(=O)(=O)c1ccc(OC(F)(F)F)cc1` (centres unmarked) was “+ +”. On to `CC(C)CN(CC(O)C(Cc1ccc(OCP(=O)(OCc2ccccc2)OCc2ccccc2)cc1)NC(=O)OC1COC2OCCC12)S(=O)(=O)c1ccc(OC(F)(F)F)cc1` (centres unmarked), for which the “Ki (pM)” value is listed as “+ +”. Still for that read-out and setting: the value for `CC(C)CN(CC(O)C(Cc1ccc(OCP(=O)(OCc2ccccc2)OCc2ccccc2)cc1)NC(=O)OC1COC2OCCC12)S(=O)(=O)c1ccc(C#N)cc1` (centres unmarked) was “+ +”; that for `CC(C)CN(CC(O)C(Cc1ccc(OCP(=O)(OCc2ccccc2)OCc2ccccc2)cc1)NC(=O)OC1COC2OCCC12)S(=O)(=O)c1ccc(CO)cc1` (centres unmarked) was “+ +”. With `CC(C)CN(CC(O)C(Cc1ccccc1)NC(=O)OC1COC2OCCC12)S(=O)(=O)c1ccc(O)cc1` (centres unmarked), the “Ki (pM)” value was “+ + +”.

`CC(C)CN(CC(O)C(Cc1ccccc1)NC(=O)OC1COC2OCCC12)S(=O)(=O)c1ccc(OCP(=O)(O)O)cc1` (centres unmarked): the “Ki (pM)” value is listed as “+ + +”. Turning to `CCOP(=O)(COc1ccc(S(=O)(=O)N(CC(C)C)CC(O)C(Cc2ccccc2)NC(=O)OC2COC3OCCC23)cc1)OCC` (centres unmarked), the “Ki (pM)” value was “+ +”. Turning to `CC(C)CN(CC(O)C(Cc1ccccc1)NC(=O)OC1COC2OCCC12)S(=O)(=O)c1cccc(O)c1` (centres unmarked), the “Ki (pM)” value is given as “+ + +”. On to `COc1cccc(S(=O)(=O)N(CC(C)C)CC(O)C(Cc2ccccc2)NC(=O)OC2COC3OCCC23)c1` (centres unmarked), for which the “Ki (pM)” value was “+ + +”. `CC(C)CN(CC(O)C(Cc1ccccc1)NC(=O)OC1COC2OCCC12)S(=O)(=O)c1cccc(OCP(=O)(O)O)c1` (centres unmarked): the “Ki (pM)” value is reported as “+ +”. `CCOP(=O)(COc1cccc(S(=O)(=O)N(CC(C)C)CC(O)C(Cc2ccccc2)NC(=O)OC2COC3OCCC23)c1)OCC` (centres unmarked): the “Ki (pM)” value was “+ + +”.

Take `CC(C)CN(CC(O)C(Cc1ccccc1)NC(=O)OC1COC2OCCC12)S(=O)(=O)c1cccc(OCP(=O)(OCc2ccccc2)OCc2ccccc2)c1` (centres unmarked): the “Ki (pM)” value is “+ +”. Turning to `COc1ccc(S(=O)(=O)N(CC(C)C)CC(O)C(Cc2ccccc2)NC(=O)OC2COC3OCCC23)cc1O` (centres unmarked), the “Ki (pM)” value is “+ + +”. For the compound `COc1ccc(S(=O)(=O)N(CC(C)C)CC(O)C(Cc2ccccc2)NC(=O)OC2COC3OCCC23)cc1OCP(=O)(O)O` (centres unmarked), the “Ki (pM)” value is recorded as “+ + +”.

For `O=C1N(Cc2ccccc2)C(Cc2ccccc2)C(O)C(O)C(Cc2ccc(OCP(=O)(OCc3ccccc3)OCc3ccccc3)cc2)N1Cc1ccccc1` (centres unmarked), the concentration for half-maximal inhibition (IC50) stood at 7.4 nM. Also, the inhibition constant Ki (Enzymatic assay Ki (nM)) was 125 pM. Consider `O=C1N(Cc2ccccc2)C(Cc2ccccc2)C(O)C(O)C(Cc2ccc(OCP(=O)(O)O)cc2)N1Cc1ccccc1` (centres unmarked), for which the IC50 is 9.7 nM. For the same compound, the Ki (Enzymatic assay Ki (nM)) worked out at 386 pM.
